System: Syrian Golden Hamster
Assay: In vivo effect on plasma lipids and glucose in Syrian Golden Hamster
Details: against normal diet control; 6.0 mg/kg/day
Experimental: In order to investigate the effect of the compound of formula (1) of the invention, the compound was orally administered into male Syrian Golden Hamsters having weights of 90~110 g and then blood was taken from each animal. Plasma lipids, i.e., total cholesterol, LDL-cholesterol, HDL-cholesterol and triglycerides were analyzed using an automatic analyzer (Automatic analyzer model Hitachi 7150).
Male Syrian Golden Hamsters weighing 90~110 g distributed from Samyuk Animal Laboratory, Seoul, Korea were bred under the following conditions: They were maintained under reverse light cycle (light cycle: from 6 P.M to 6 A.M; dark cycle: from 6 A.M. to 6 P.M.). The food and water were supplied at 10 A.M. The commercially available standard rodent chows were used. The hamsters were divided into 6 or 7 animals per group. The animals were fasted for 12 hours before administrating the drug. Then, dehydrocoridaline derivatives dissolved in a 0.25% methyl cellulose solution was administered orally for 14 days at the indicated time per a day. After fasting animals for 24 hours from the last administration, blood was extracted using a cardiac puncture and plasma was then isolated. Plasma lipids, i.e., total cholesterol, LDL-cholesterol, HDL-cholesterol and triglyceride values were analyzed using Automatic Analyzer (Hitachi 7150).

In the case of `CC[C@H](C)C(=O)O[C@H]1C[C@@H](C)C=C2C=C[C@H](C)[C@H](CC[C@@H]3C[C@@H](O)CC(=O)O3)[C@H]21` [lovastatin, reference compound], the “Trigly-ceride, percent change in parentheses” value is reported as -37.8%.

— patent US6255317A, “Cholesterol biosynthesis inhibitors” (Hanwha Chemical Corporation, priority 1998, dated 2001)
